# scFv variants of Ab-14 (light chain) against a SARS-CoV-2 spike peptide

The measurements come from Li et al. 2023 (doi:10.1038/s41467-023-39022-2) through the FLAb antibody collection.

All variants were tested on one target, the spike HR2 peptide PDVDLGDISGINAS (SARS-CoV-2).

Ab-14 is the parent antibody, in scFv form: VH, then a 15-residue (Gly4Ser)3 linker, then VL. The heavy chain is unchanged in all variants.
VH: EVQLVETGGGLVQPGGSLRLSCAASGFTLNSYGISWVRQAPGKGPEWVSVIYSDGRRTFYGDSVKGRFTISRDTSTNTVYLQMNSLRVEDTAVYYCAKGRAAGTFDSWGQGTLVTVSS
VL: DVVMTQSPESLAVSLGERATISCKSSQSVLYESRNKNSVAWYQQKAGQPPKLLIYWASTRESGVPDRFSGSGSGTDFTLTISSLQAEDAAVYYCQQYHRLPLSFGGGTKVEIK

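This is the validation round: designs drawn from the data on random variants, tested in the same kind of assay. Group labels follow the data file (Ctrl: baseline library sampled from a position-specific scoring matrix, with some repeated check sequences; En: ensemble of fine-tuned language models; GP: Gaussian process model; HC: hill climbing; Gen: genetic algorithm; Gibbs: Gibbs sampling; a sequence that several methods proposed may carry one label only). The scFvs were displayed on barcoded MATa yeast, the peptide on MATalpha yeast. Pairs that bind mate more often; barcode pairs of the diploids are counted by sequencing. Read counts were normalised to the haploid input and turned into Kd by a linear fit to BCL2-family pairs of known affinity, for each replicate. Mating was done six times.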

The parent's light chain CDRs are KSSQSVLYESRNKNSVA, WASTRES, QQYHRLPLS; each variant's own CDRs replace them letter for letter. Kd is apparent (estimated from mating counts) and averaged on the log scale over replicates with a signal. Smaller is tighter. "no signal" marks a missing value. The strain was present, yet no cells mated with the target were sequenced in any replicate, which points to weak or no binding.

CDR-L1,CDR-L2,CDR-L3,group,apparent Kd,detected
HMQNESQGDSRQLNNVA,ETTVVET,QQYATLPLT,En_Gibbs,81 nM,6 of 6
KLSESAHFESRKKNSVA,ENSTRES,QQYDHLPLS,En_HC,59 nM,6 of 6
KSSQSFLAESRNKNSVA,WASTRES,CQYHRLPLS,Ctrl,no signal,0 of 6
MFSQTVMYESTMRNNVA,QTSTREQ,QQYDRLPLS,En_HC,2.5 nM,6 of 6
HTQHLGFGDPYHWNNVA,EVSQVCS,QQYARLPLT,En_Gibbs,28 nM,6 of 6
KISQSVLYESRNVNSVA,WASERES,QQYHRLPLS,Ctrl,9.3 nM,6 of 6
KSSQSVLYESRNKNSVA,WLSTRES,QQYHRLPLS,Ctrl,620 nM,2 of 6
KISGMYQKESKNKNSVA,EMVNREY,QQYDRLPLS,En_HC,1.4 nM,6 of 6
KIEQSVLYEDRNINSVA,NASQRES,QAYHRLPLS,GP_Gibbs,8.9 nM,6 of 6
KSSQSVLYLSRNKNSVA,WASTRES,QQYHRLPLS,Ctrl,no signal,0 of 6
KITLIFSNKGNSRHSVA,NAETLAH,QQYYRLPLM,En_Gibbs,100 nM,6 of 6
KSDQSVLYESRNKNSVA,AADTRES,QQYHRLPLS,Ctrl,2.4 nM,6 of 6
KIGLTLNTLMHQKNNVA,DLVEREN,QQYFRLPLS,En_Gen,4.1 nM,6 of 6
KVSQSVDYESRNKNNVA,DASTRES,QQYHRLPLS,GP_Gen,220 pM,6 of 6
KLSLMYQHTSRNKNNIA,ERSTREE,QQYHHLPLS,En_HC,9.2 nM,4 of 6
MISQLYNMGSFAINSVA,QAQTRNE,QQYDRLPLM,En_Gen,13 nM,6 of 6
TISQVTGLLQHNSNSVA,DMNTRGS,QQYDRLPLS,En_HC,2.6 nM,6 of 6
IIAQLMYWGNKSANSIA,QAEERLN,QQYHHLPLS,En_Gen,no signal,0 of 6
KISQSVLYESRNKNSVA,NASTRYS,QQYHRLPLS,GP_Gen,760 pM,6 of 6
KVSQSKLYESRNKNSVA,NASTRES,QQYHRLPLS,GP_Gen,2.5 nM,6 of 6
NFSQMVLTGRTLKNSVA,HASTREE,QQYHRLPLI,En_HC,42 nM,6 of 6
KWSQSDLLESRNHNSVA,HASTRCS,QQYHRLPLS,GP_Gibbs,41 nM,6 of 6
KSSISVLYESRNKNSVA,GASTREH,QQYHRLPLS,Ctrl,5.3 nM,6 of 6
KLGSMVLLEYGNKNSIA,QMSTREE,QQYDRLPLS,En_HC,26 nM,4 of 6
KSSQSVLYDSRNKNSVA,WASTRES,QQYNRLPLS,Ctrl,190 nM,6 of 6
KSSQSVLMESRNWNSVA,DASTRES,QQYHRLPLS,GP_HC,1.3 nM,6 of 6
KLSQSVWYEERNKNSVA,NASKRES,QQYHRLPLS,GP_Gibbs,870 pM,6 of 6
MIGDLTMYGSRNVNSVA,DLSTRGS,QQYDRLPLS,En_HC,3.9 nM,6 of 6
KSSQSVLGEQRNKNSVA,DSSTRES,QQYHRLPLS,GP_HC,1.1 nM,6 of 6
NVGGEDPGQWYMHDSIA,GSSLRAE,QQYWRLPLL,En_Gibbs,3.0 nM,6 of 6
KMSQSVLYESRNKNSVA,DASTRES,QQYHRLPLS,Ctrl+GP_Gen,810 pM,12 of 12
KLEESWLYESRNKNSVA,NASTRES,QQYHRLPLS,GP_Gen,2.9 nM,6 of 6
TIGGTLMYGYRNRNNVA,EVSERLN,QQYDRLPLI,En_Gen,5.7 nM,6 of 6
HSSPSELYESRNKNSVA,NASTRES,QQYHRLPLS,GP_HC,2.2 nM,6 of 6
KLSQSQLYESRNKNNVA,QASTRES,QQYHRLPLS,GP_Gen,350 pM,6 of 6
KSDQSVLYESRNKNSVA,WTSTRES,QQYHRLPLS,Ctrl,120 nM,3 of 6
KSSQSYLYESRNFNSVA,GASTRES,QQYHRLPLS,GP_HC,1.7 nM,6 of 6
SLMDNPWVEDHYRKAIA,DINVRAD,QQYHRLPLS,En_Gibbs,1.5 nM,6 of 6
KLSNSVWQESRMKNQVA,EASTREM,QQYHRLPLS,GP_Gibbs,6.5 nM,6 of 6
KFPQSVGYQSRNKNSVA,DASTRES,QQYHRLPLS,GP_Gibbs,2.0 nM,6 of 6
TLTQSVLMGSHNKNSVA,DLSTRGS,QQYHRLPLS,En_HC,500 pM,6 of 6
KLSQSNLYESRNKNSVA,NASTRMS,QQYHRLPLS,GP_Gen,2.2 nM,6 of 6
KSSQSVAYESRNKNSVA,WASTRES,QQYHRLPLS,Ctrl,11 nM,6 of 6
KLSVSWLFEQIEKNSVA,ERSTRES,QDYNRLPLS,En_HC,82 nM,5 of 6
KISQMVRVGSTHSNSIA,EEATRLD,QQYHRLPLS,En_Gen,2.1 nM,6 of 6
TIGQMFNGESRIRNSVA,QASTREE,QSYDRLPLA,En_HC,12 nM,6 of 6
KSSQSVLYESRNKNSVA,WASTCES,QQYHRQPLS,Ctrl,no signal,0 of 6
KTSQSVFYESKNKNSVA,WASCRWS,QQYHDLPLS,Ctrl,590 nM,2 of 6
KLSQSDLYESRNKNNVA,EASQRES,QQYHRLPLS,GP_Gen,470 pM,6 of 6
NFYMDAAEFVNEDESIA,DAEISYQ,QQYHRLPLV,En_Gibbs,200 nM,2 of 6
KLSPSVLGMSRAKNSVA,NASTRES,QQYHRLPLS,GP_Gibbs,470 pM,6 of 6
TISQSWIYESRNKNNVA,EMSTREN,QDYDRLPLS,En_HC,660 pM,6 of 6
TISQSALMTGLNRNSVA,QASERIE,QQYHRLPLS,En_HC,760 pM,6 of 6
KFSGYKEMVNKDQESIA,GSHTIQE,QQYSRLPLA,En_Gibbs,2.1 nM,6 of 6
KYSFSVLELSRNSNAVA,NASTREE,QDYHRLPLS,GP_Gibbs,1.2 nM,6 of 6
KVSNSVDGEDRNKNAVA,KASTRES,QQYHRLPLS,GP_Gibbs,490 pM,6 of 6
KLMMSGLYESRNSNSVA,NASYREQ,QQYHRLPLS,GP_Gibbs,950 pM,6 of 6
KIQQEGEYEDRNKNSVA,SASTRCP,QQYHRLPLS,GP_Gibbs,850 pM,6 of 6
KFSQLVLYEERMKNSVA,DASQRLS,QQYHRLPLS,GP_Gibbs,1.1 nM,6 of 6

4 of these entries, quoted again:

CDR-L1,CDR-L2,CDR-L3,group,apparent Kd,detected
IIAQLMYWGNKSANSIA,QAEERLN,QQYHHLPLS,En_Gen,no signal,0 of 6
KVSQSKLYESRNKNSVA,NASTRES,QQYHRLPLS,GP_Gen,2.5 nM,6 of 6
TIGQMFNGESRIRNSVA,QASTREE,QSYDRLPLA,En_HC,12 nM,6 of 6
KSSQSVAYESRNKNSVA,WASTRES,QQYHRLPLS,Ctrl,11 nM,6 of 6

The authors' rule: three or more of the six replicates give a measured affinity, fewer mean a poor binder. A sequence measured in both rounds can read differently, since the two assays cover different ranges. The parent sequence was in this pool as ten entries: three were never detected, three once, and four in most replicates, with averages from 2.2 nM to 240 nM. Some sequences occur more than once in the pool; their replicates are pooled. Three control strains display no target. For all light chain designs, 4% of the pairings with them gave a signal, with a median of 430 nM and one signal in twenty below 38 nM, so weak values seen in few replicates may be background.